Results as given in patent US20240158639A1, “PROCESS FOR PREPARING INDOCYANINE GREEN” (ICROM Srl, priority 2021, published 2024).

Assay: Solubility in water, checked by filtration on a 0.45 μm syringe filter
Details: obtained without NaI (example 3), dry isolated powder after crystallization, 20-25° C.; not soluble at 5 mg/ml or 2.5 mg/ml

“1H-benz[e]indole, 2-[7-[1,3-dihydro-1,1-dimethyl-3-(4-sulfobutyl)-2H-benz[e]indol-2-ylidene]-1,3,5-heptatrienyl]-1,1-dimethyl-3-(4-sulfobutyl) hydroxide, inner salt, sodium salt [compound of formula (I)]” gave a solubility in water of less than 2500 µg/mL.
